Laboratory results: patent publication US20250368649A1, “TETRAHYDROPYRIDOPYRIMIDINE PAN-KRAS INHIBITORS” (Mirati Therapeutics, Inc., priority 2022, published 2025)

By UniProt entry, the sequences of proteins in these tests, tags left out. Where a name states a change or a piece, a line headed by the entry shows the natural chain unless it says otherwise.
UniProt P01116: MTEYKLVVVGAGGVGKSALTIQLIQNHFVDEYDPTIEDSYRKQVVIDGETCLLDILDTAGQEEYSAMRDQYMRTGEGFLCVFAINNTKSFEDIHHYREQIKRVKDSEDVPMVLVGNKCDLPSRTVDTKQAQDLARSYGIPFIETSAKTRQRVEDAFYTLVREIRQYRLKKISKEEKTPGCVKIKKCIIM

Tests used:
Experiment in all cases: biochemical
KRas G12V = KRas G12V (Homo sapiens, UniProt P01116, G12V); details: Binding to KRas (IC50 nM) G12V, TR-FRET displacement
KRas G12R = KRas G12R (Homo sapiens, UniProt P01116, G12R); details: Binding to KRas (IC50 nM) G12R, TR-FRET displacement
KRas G12D = KRas G12D (Homo sapiens, UniProt P01116, G12D); details: Binding to KRas (IC50 nM) G12D, TR-FRET displacement

Row | SMILES | IC50 (KRas G12V) | IC50 (KRas G12R) | IC50 (KRas G12D)
1 | CCc1cccc2cccc(N3CCc4c(nc(OCC56CCCN5CCC6)nc4N4CCC(O)CC(S(C)(=O)=O)C4)C3)c12 (single isomer, unassigned) [Example 480, 1-(7-(8-ethylnaphthalen-1-yl)-2-((tetrahydro-1H-pyrrolizin-7a(5H)-yl)methoxy)-5,6,7,8-tetrahydropyrido[3,4-d]pyrimidin-4-yl)-6-(methylsulfonyl)azepan-4-ol] | 35 nM | 53 nM | 229 nM
2 | Cc1cc2[nH]ncc2c(N2CCc3c(nc(OCC45CCCN4CCC5)nc3N3CCCC4(CC(O)C4)C3)C2)c1C (single isomer, unassigned; isomer 2) [Example 454, 6-(7-(5,6-dimethyl-1H-indazol-4-yl)-2-((hexahydro-1H-pyrrolizin-7a-yl)methoxy)-5,6,7,8-tetrahydropyrido[3,4-d]pyrimidin-4-yl)-6-azaspiro[3.5]nonan-2-ol (isomer 2)] | 333 nM | 703 nM | 817 nM
3 | CCc1c(F)ccc2cc(O)cc(N3CCc4c(nc(OC[C@@]56CCCN5C[C@H](F)C6)nc4N4CCCc5c(cnn5C5COC5)C4)C3)c12 [Example 243, 5-ethyl-6-fluoro-4-(2-(((2R,7aS)-2-fluorohexahydro-1H-pyrrolizin-7a-yl)methoxy)-4-(1-(oxetan-3-yl)-7,8-dihydropyrazolo[4,3-c]azepin-5(1H,4H,6H)-yl)-5,6-dihydropyrido[3,4-d]pyrimidin-7(8H)-yl)naphthalen-2-ol] | 422 nM | 3260 nM | 3190 nM
4 | C=Cc1ncc2n1CCN(c1nc(OC[C@@]34CCCN3C[C@H](F)C4)nc3c1CCN(c1cc(O)cc4ccc(F)c(CC)c14)C3)C2 [Example 248, 5-ethyl-6-fluoro-4-(2-(((2R,7aS)-2-fluorohexahydro-1H-pyrrolizin-7a-yl)methoxy)-4-(3-vinyl-5,6-dihydroimidazo[1,5-a]pyrazin-7(8H)-yl)-5,6-dihydropyrido[3,4-d]pyrimidin-7(8H)-yl)naphthalen-2-ol] | 147 nM | 515 nM | 1570 nM
5 | CCc1c(F)ccc2cc(O)cc(N3CCc4c(nc(OC[C@@]56CCCN5C[C@H](F)C6)nc4N4CCCn5nc(C(=O)N6CC7CCC(C6)N7C)cc5C4)C3)c12 [Example 270] | < 2 nM | < 2 nM | < 2 nM
6 | CCc1c(F)ccc2cc(O)cc(N3CCc4c(nc(OC[C@@]56CCCN5C[C@H](F)C6)nc4N4CCCn5nc(C(=O)N6C7CC6CN(C)C7)cc5C4)C3)c12 [Example 271, (5-(7-(8-ethyl-7-fluoro-3-hydroxynaphthalen-1-yl)-2-(((2R,7aS)-2-fluorohexahydro-1H-pyrrolizin-7a-yl)methoxy)-5,6,7,8-tetrahydropyrido[3,4-d]pyrimidin-4-yl)-5,6,7,8-tetrahydro-4H-pyrazolo[1,5-a][1,4]diazepin-2-yl)(3-methyl-3,6-diazabicyclo[3.1.1]heptan-6-yl)methanone] | < 2 nM | < 2 nM | < 2 nM
7 | CCc1cccc2cccc(N3CCc4c(nc(OCC5(CN(C)C)CC5)nc4N4CCOC5COCC5C4)C3)c12 (stereo not drawn) [Example 521, 1-(1-(((7-(8-ethylnaphthalen-1-yl)-4-(hexahydrofuro[3,4-f][1,4]oxazepin-4(5H)-yl)-5,6,7,8-tetrahydropyrido[3,4-d]pyrimidin-2-yl)oxy)methyl)cyclopropyl)-N,N-dimethylmethanamine] | 235 nM | – | 2720 nM
8 | CCc1cccc2cccc(N3CCc4c(nc(OCC5(CN(C)C)CC5)nc4N4CCCC(c5cn(C)nn5)C4)C3)c12 (stereo not drawn) [Example 522, 1-(1-(((7-(8-ethylnaphthalen-1-yl)-4-(3-(1-methyl-1H-1,2,3-triazol-4-yl)piperidin-1-yl)-5,6,7,8-tetrahydropyrido[3,4-d]pyrimidin-2-yl)oxy)methyl)cyclopropyl)-N,N-dimethylmethanamine] | 1850 nM | – | 3060 nM
9 | CCc1cccc2cccc(N3CCc4c(nc(OCC5(CN(C)C)CC5)nc4N4CCCC(c5nc(N)n(C)n5)C4)C3)c12 (stereo not drawn) [Example 523, 3-(1-(2-((1-((dimethylamino)methyl)cyclopropyl)methoxy)-7-(8-ethylnaphthalen-1-yl)-5,6,7,8-tetrahydropyrido[3,4-d]pyrimidin-4-yl)piperidin-3-yl)-1-methyl-1H-1,2,4-triazol-5-amine] | 491 nM | – | 3570 nM
10 | CCc1cccc2cccc(N3CCc4c(nc(OCC5(CN(C)C)CC5)nc4N4CCn5ncc(S(N)(=O)=O)c5C4)C3)c12 [Example 524, 5-(2-((1-((dimethylamino)methyl)cyclopropyl)methoxy)-7-(8-ethylnaphthalen-1-yl)-5,6,7,8-tetrahydropyrido[3,4-d]pyrimidin-4-yl)-4,5,6,7-tetrahydropyrazolo[1,5-a]pyrazine-3-sulfonamide] | 14000 nM | – | 4250 nM
11 | CCc1cccc2cccc(N3CCc4c(nc(OCC5(CN(C)C)CC5)nc4NCc4nc(C5(O)CCOCC5)n[nH]4)C3)c12 [Example 525, 4-(5-(((2-((1-((dimethylamino)methyl)cyclopropyl)methoxy)-7-(8-ethylnaphthalen-1-yl)-5,6,7,8-tetrahydropyrido[3,4-d]pyrimidin-4-yl)amino)methyl)-1H-1,2,4-triazol-3-yl)tetrahydro-2H-pyran-4-ol] | 4500 nM | – | 5220 nM
12 | CCc1cccc2cccc(N3CCc4c(nc(OCC5(CN(C)C)CC5)nc4NCc4nn(C)c(C)c4S(N)(=O)=O)C3)c12 [Example 527, 3-(((2-((1-((dimethylamino)methyl)cyclopropyl)methoxy)-7-(8-ethylnaphthalen-1-yl)-5,6,7,8-tetrahydropyrido[3,4-d]pyrimidin-4-yl)amino)methyl)-1,5-dimethyl-1H-pyrazole-4-sulfonamide] | 14100 nM | – | 6140 nM
13 | CCc1cccc2cccc(N3CCc4c(nc(OCC5(CN(C)C)CC5)nc4N4CCCC(c5nnc(N)o5)C4)C3)c12 (stereo not drawn) [Example 693, 5-(1-(2-((1-((dimethylamino)methyl)cyclopropyl)methoxy)-7-(8-ethylnaphthalen-1-yl)-5,6,7,8-tetrahydropyrido[3,4-d]pyrimidin-4-yl)piperidin-3-yl)-1,3,4-oxadiazol-2-amine] | 2400 nM | – | 3300 nM
14 | CCc1cccc2cccc(N3CCc4c(nc(OCC5(CN(C)C)CC5)nc4NCc4nc(-c5ccco5)n[nH]4)C3)c12 [Example 695, 2-((1-((dimethylamino)methyl)cyclopropyl)methoxy)-7-(8-ethylnaphthalen-1-yl)-N-((3-(furan-2-yl)-1H-1,2,4-triazol-5-yl)methyl)-5,6,7,8-tetrahydropyrido[3,4-d]pyrimidin-4-amine] | 3990 nM | – | 3910 nM
15 | CCc1cccc2cccc(N3CCc4c(nc(OCC5(CN(C)C)CC5)nc4N4CCCC(c5n[nH]c(=O)o5)C4)C3)c12 (stereo not drawn) [Example 696, 5-(1-(2-((1-((dimethylamino)methyl)cyclopropyl)methoxy)-7-(8-ethylnaphthalen-1-yl)-5,6,7,8-tetrahydropyrido[3,4-d]pyrimidin-4-yl)piperidin-3-yl)-1,3,4-oxadiazol-2(3H)-one] | 1960 nM | – | 5160 nM
16 | CCc1cccc2cccc(N3CCc4c(nc(OCC5(CN(C)C)CC5)nc4N4CCCC(c5n[nH]c(C)n5)C4)C3)c12 (stereo not drawn) [Example 697, 1-(1-(((7-(8-ethylnaphthalen-1-yl)-4-(3-(5-methyl-1H-1,2,4-triazol-3-yl)piperidin-1-yl)-5,6,7,8-tetrahydropyrido[3,4-d]pyrimidin-2-yl)oxy)methyl)cyclopropyl)-N,N-dimethylmethanamine] | 1460 nM | – | 3780 nM
17 | CCc1cccc2cccc(N3CCc4c(nc(OCC5(CN(C)C)CC5)nc4NCc4nc(-c5ccccn5)n[nH]4)C3)c12 [Example 698, 2-((1-((dimethylamino)methyl)cyclopropyl)methoxy)-7-(8-ethylnaphthalen-1-yl)-N-((3-(pyridin-2-yl)-1H-1,2,4-triazol-5-yl)methyl)-5,6,7,8-tetrahydropyrido[3,4-d]pyrimidin-4-amine] | 4040 nM | – | 6020 nM
18 | CCc1cccc2cccc(N3CCc4c(nc(OCC5(CN(C)C)CC5)nc4N(C)Cc4nnc5n4CCN(C)C5=O)C3)c12 [Example 702, 3-(((2-((1-((dimethylamino)methyl)cyclopropyl)methoxy)-7-(8-ethylnaphthalen-1-yl)-5,6,7,8-tetrahydropyrido[3,4-d]pyrimidin-4-yl)(methyl)amino)methyl)-7-methyl-6,7-dihydro-[1,2,4]triazolo[4,3-a]pyrazin-8(5H)-one] | 1120 nM | – | 2030 nM
19 | CCc1cccc2cccc(N3CCc4c(nc(OCC5(CN(C)C)CC5)nc4NCc4nc(C(C)O)n[nH]4)C3)c12 (stereo not drawn) [Example 704, 1-(5-(((2-((1-((dimethylamino)methyl)cyclopropyl)methoxy)-7-(8-ethylnaphthalen-1-yl)-5,6,7,8-tetrahydropyrido[3,4-d]pyrimidin-4-yl)amino)methyl)-1H-1,2,4-triazol-3-yl)ethan-1-ol] | 3080 nM | – | 3220 nM
20 | CCc1cccc2cccc(N3CCc4c(nc(OCC5(CN(C)C)CC5)nc4NCc4nc(C(C)(C)O)n[nH]4)C3)c12 [Example 707, 2-(5-(((2-((1-((dimethylamino)methyl)cyclopropyl)methoxy)-7-(8-ethylnaphthalen-1-yl)-5,6,7,8-tetrahydropyrido[3,4-d]pyrimidin-4-yl)amino)methyl)-1H-1,2,4-triazol-3-yl)propan-2-ol] | 3320 nM | – | 6280 nM
21 | CCc1cccc2cccc(N3CCc4c(nc(OCC5(CN(C)C)CC5)nc4NCc4nc(C(C)O)n[nH]4)C3)c12 (stereo not drawn) [Example 708, 1-(5-(((2-((1-((dimethylamino)methyl)cyclopropyl)methoxy)-7-(8-ethylnaphthalen-1-yl)-5,6,7,8-tetrahydropyrido[3,4-d]pyrimidin-4-yl)amino)methyl)-1H-1,2,4-triazol-3-yl)ethan-1-ol] | 2470 nM | – | 2260 nM
